Results reported in patent US5610025A, “Inhibition of interfering endogenous enzyme activity in assays of biological fluids” (Actimed Laboratories, Inc., priority 1993, dated 1997).

The chains behind the UniProt entries cited, without tags or fusion partners. Residues count along the entry.
UniProt P04040, 2-527 limits assumed: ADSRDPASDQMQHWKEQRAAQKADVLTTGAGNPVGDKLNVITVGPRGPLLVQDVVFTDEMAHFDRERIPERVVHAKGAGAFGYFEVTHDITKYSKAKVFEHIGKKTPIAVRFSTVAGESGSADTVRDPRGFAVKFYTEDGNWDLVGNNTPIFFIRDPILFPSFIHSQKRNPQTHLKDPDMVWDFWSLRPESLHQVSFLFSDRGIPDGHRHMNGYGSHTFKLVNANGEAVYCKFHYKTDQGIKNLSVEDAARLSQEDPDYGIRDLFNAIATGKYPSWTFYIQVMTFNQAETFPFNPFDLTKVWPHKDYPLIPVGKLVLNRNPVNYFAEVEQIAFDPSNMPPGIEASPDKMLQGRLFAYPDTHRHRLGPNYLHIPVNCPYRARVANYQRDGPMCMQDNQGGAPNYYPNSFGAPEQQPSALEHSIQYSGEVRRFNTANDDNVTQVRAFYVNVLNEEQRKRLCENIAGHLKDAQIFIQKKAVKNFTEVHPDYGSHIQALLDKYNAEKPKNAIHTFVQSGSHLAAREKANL

Molecular target: catalase (Homo sapiens, UniProt P04040)
Assay: Catalase inhibitor screening, aqueous hydrogen peroxide samples with added catalase, dye indicator/peroxidase system, absorbance at 514 nm
Format: biochemical
Settings: inhibitor concentration 40 mM

## [N-]=[N+]=[N-] [Sodium azide]
  % Recovery (of absorbance): 109%
